{
  "source": "patent US20110318344A1",
  "about": "“Tumor Treatment” (MEDIZINISCHE UNIVERSITAET WIEN, priority 2009, published 2011)",
  "key": {"SK-OV-3 cells": {"system": "SK-OV-3 cells", "experiment": "Proliferation assay (cell number by CASY cell counter, doubling time)", "assay_type": "cell-based, human", "conditions": "SKOV-3, HCRP1-silenced vs controls (FIG. 7A)", "procedure": "The SK-OV-3 cell line was cultured equally the MDAH-2774 cell line except for the use of McCoy's medium. For applying the Tet-Off inducible system, founder cell lines were generated by transfecting SK-OV-3 cells with the pTet-Off vector (neo^r) encoding a tetracyclin repressible transactivator (tTA). Resistant colonies were selected with 200 μg/ml G418 and characterized by transient transfection with the luciferase reporter plasmid (pTRE-Luc), whose promoter is induced by the transactivator. Luciferase activity in the presence and absence of tetracycline was measured to identify cells with maximal promoter inducibility. […] These two founder cell lines were used to establish cells inducible for HCRP1-specific shRNA constructs (Open Biosystems; #V2HS 21202, #V2HS 21203), which were cloned into the SIN-TREmiR30-PIG vector (purr) downstream of the tetracycline inducible promoter. Thus, presence of tetracycline in the culture medium would suppress shRNA expression, while its withdrawal would induce the knock-down of HCRP1. […]\nTo maintain the logarithmic phase, cells were split at intervals of 48 hours, along with the determination of the cell number by a CASY cell counter (Innovatis AG, Bielefeld, Germany). […] From the obtained data doubling times (dt) were calculated and depicted as dt-1."}, "MDAH-2774 cells": {"system": "MDAH-2774 cells", "experiment": "Proliferation assay (cell number by CASY cell counter, doubling time)", "assay_type": "cell-based, human", "conditions": "MDAH-2774, HCRP1-silenced vs controls (FIG. 7B)", "procedure": "The human ovarian carcinoma cell line MDAH-2774 was cultured in RPMI medium with 10% FCS (fetal calf serum), 50 units/ml penicillin G, and 50 μg/ml streptomycin sulfate at 37° C. in a humidified atmosphere of 95% air with 5% CO2. three different shRNA constructs complementary exclusively to the HCRP1 mRNA in addition to 1 nonsense construct serving a control were cloned into the vector pSilencer 4.1-CMV neo. Transfection was performed with Lipofectamine 2000 according to the manufacturers protocol (Invitrogen, Carlsbad, Calif., USA). Stable clones were selected with 700 μg/ml G418, picked and sub-cultured with 350 μg/ml G418. Silencing efficiency was quantified by qRT-PCR and western blot.\nTo maintain the logarithmic phase, cells were split at intervals of 48 hours, along with the determination of the cell number by a CASY cell counter (Innovatis AG, Bielefeld, Germany). This procedure was performed in triplicates over a time-span of 6 days and confirmed by a replication of the whole experiment. From the obtained data doubling times (dt) were calculated and depicted as dt-1."}},
  "data": [
    {"substance": "Cetuximab: monoclonal antagonistic antibody against EGFR", "values": [
      {"measurement": "dependence of the anti-proliferative effect on HCRP1 expression", "setting": "SK-OV-3 cells", "result": "observed only in the controls"},
      {"measurement": "dependence of the anti-proliferative effect on HCRP1 expression", "setting": "MDAH-2774 cells", "result": "observed only in the controls"}
    ]}
  ]
}
